Source: patent US6664442B2, “Selecting compounds to reduce inflammation associated with Alzheimer's disease” (Elan Pharmaceuticals, Inc., priority 2000, dated 2003)

Protein sequences, listed by entry. Tags and fused reporters are not part of them. Lines headed by an entry give the natural chain unless they say otherwise; changes in a name come on top.
UniProt P05067: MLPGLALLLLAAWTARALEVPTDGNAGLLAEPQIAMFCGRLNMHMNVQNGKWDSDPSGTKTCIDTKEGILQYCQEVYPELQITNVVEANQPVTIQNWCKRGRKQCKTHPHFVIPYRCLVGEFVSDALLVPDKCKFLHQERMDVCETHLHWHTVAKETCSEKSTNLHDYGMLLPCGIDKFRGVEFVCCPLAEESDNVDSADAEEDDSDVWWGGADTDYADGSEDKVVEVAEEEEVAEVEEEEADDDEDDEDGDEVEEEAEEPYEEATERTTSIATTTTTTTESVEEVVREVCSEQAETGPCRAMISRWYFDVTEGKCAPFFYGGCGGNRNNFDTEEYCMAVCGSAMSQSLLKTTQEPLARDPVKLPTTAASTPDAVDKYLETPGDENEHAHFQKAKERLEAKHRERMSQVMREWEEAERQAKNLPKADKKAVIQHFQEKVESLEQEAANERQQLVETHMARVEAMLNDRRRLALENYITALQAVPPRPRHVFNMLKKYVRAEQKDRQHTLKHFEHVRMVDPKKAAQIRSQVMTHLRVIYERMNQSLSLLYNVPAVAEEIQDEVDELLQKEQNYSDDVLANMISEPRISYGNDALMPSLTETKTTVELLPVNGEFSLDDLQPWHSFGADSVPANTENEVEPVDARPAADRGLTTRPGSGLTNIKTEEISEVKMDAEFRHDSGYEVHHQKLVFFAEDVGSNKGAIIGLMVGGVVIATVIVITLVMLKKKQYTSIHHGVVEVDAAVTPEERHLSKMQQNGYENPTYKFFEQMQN

Legend:
Format in all cases: in vivo, mouse
Conditions in all cases: tissue not given
[1] = test system: MCP-1; test: mRNA expression of MCP-1 in PDAPP mice immunized with Aβ1-42 or a fragment, quantitative RT-PCR
Description: (§1) RNA was isolated from brain tissues using the S.N.A.P.™ Total RNA Isolation Kit (Invitrogen, Carlsbad, Calif.) according to manufacturer's instructions, with the following modifications: the tissue was homogenized for 20 seconds using a rotor-stator homogenizer (Fisher Scientific). The DNA digestion step was repeated a second time following isopropanol precipitation.
(§2) Quantitative PCR assays were run on a Perkin Elmer 7700 Sequencer using methods and materials provided by Perkin Elmer (Applied Biosystems Division, Foster City, Calif.). Primers and fluorescent probes were obtained from Perkin Elmer; the sequences and concentrations of primers and probes used for the various assays are listed in Table 1 below. PCR reactions were set up using approximately 300 nM concentrations of each of the forward and reverse primers, 100 nM probe and RNA extracted from the tissue of interest (20 ng). Each reaction also included a standard RNA for comparison. Data were normalized to total RNA or to GAPDH. […] Sample results were normalized to the amount of RNA measured by OD and or control message (e.g., GAPDH).
(§3) The results are presented below in Table 5 as a ratio of mRNA of Aβ-treated mice to non-Aβ-treated mice. […] Thus, the efficacy of Aβ-treatment can be assessed by comparing the mRNA expression of such markers.

[2] = test system: IFN-γ; test: mRNA expression of IFN-γ in PDAPP mice immunized with Aβ1-42 or a fragment, quantitative RT-PCR
Description: as §1, §2, §3

[3] = test system: CD4; test: mRNA expression of CD4 in PDAPP mice immunized with Aβ1-42 or a fragment, quantitative RT-PCR
Description: as §1, §2, §3

[4] = test system: Igk; test: mRNA expression of Igk in PDAPP mice immunized with Aβ1-42 or a fragment, quantitative RT-PCR
Description: as §1, §2, §3

Substance: Aβ1-12: fragment of Aβ1-42 used to immunize PDAPP mice (DAEFRHDSGYEV; Amyloid-beta protein 42; UniProt P05067 672-683, looked up, fragment)
- MCP-1 mRNA, ratio of Aβ-treated mice to non-Aβ-treated mice [1]: 0.43X
- IFN-γ mRNA, ratio of Aβ-treated mice to non-Aβ-treated mice [2]: .43X
- CD4 mRNA, ratio of Aβ-treated mice to non-Aβ-treated mice [3]: 0.59X
- Igk mRNA, ratio of Aβ-treated mice to non-Aβ-treated mice [4]: 1.89X
